AlphaSeq binding of Ab-14 light chain variants to a spike HR2 peptide

Antigen: PDVDLGDISGINAS, a 14-residue peptide of the SARS-CoV-2 spike HR2 region.

Parent: Ab-14, a human scFv built as VH, three GGGGS repeats, VL. Only the CDRs of the light chain vary.
VH: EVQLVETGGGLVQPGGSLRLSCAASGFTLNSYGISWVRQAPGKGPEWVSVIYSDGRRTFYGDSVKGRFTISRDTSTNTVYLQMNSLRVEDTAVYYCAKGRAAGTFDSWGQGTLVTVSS
VL: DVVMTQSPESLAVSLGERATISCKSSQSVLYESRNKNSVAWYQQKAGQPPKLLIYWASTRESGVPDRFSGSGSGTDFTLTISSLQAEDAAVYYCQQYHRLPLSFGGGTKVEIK

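The starting antibody came from a phage panning campaign against this peptide. This is the validation round: designs drawn from the data on random variants, tested in the same kind of assay. Group labels follow the data file (En: ensemble of fine-tuned language models; GP: Gaussian process model; HC: hill climbing; Gen: genetic algorithm; Gibbs: Gibbs sampling; a sequence that several methods proposed may carry one label only). The assay is AlphaSeq: two haploid yeast populations carry antibody and antigen on their surface. Pairs that bind mate more often; barcode pairs of the diploids are counted by sequencing. Scores were corrected for input abundance and mapped to Kd with protein pairs of known affinity run in the same pool. Mating was done six times.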

Variants are written as CDR1, CDR2 and CDR3 of the light chain (limits as in the source). Parent: KSSQSVLYESRNKNSVA, WASTRES, QQYHRLPLS.
Variants here have more than six changes.
Values are apparent Kd, the geometric mean of the replicates that gave a signal; lower means stronger binding.
An entry "no signal" has no value in the source: the pair was not observed among the diploids in any replicate. This suggests poor binding but is not conclusive.
The range of this assay differs from that of the first round, and the authors advise against merging the two.
Background: pairings of all light chain designs with three empty control strains gave a value in 4% of cases (median 430 nM, 5th percentile 38 nM). Values in that range, when seen in few replicates, are hard to tell from nonspecific mating.
Of ten entries with the parent sequence, four were seen in most replicates (averages 2.2 nM to 240 nM), three in one and three in none, so single entries are noisy.
The authors' rule: three or more of the six replicates give a measured affinity, fewer mean a poor binder.

For KLRMSTGYESRNKDSIA | DNSTRGR | QQYHRLPLS [En_HC], the assay gave 22 nM (6 of 6 replicates). With KLSWLHWYWSRNKNSVA | EASTREQ | QQYHRLPLS [GP_Gibbs] the result was 22 nM (5 of 6 replicates). The variant TISQSAEQESHNKNSVA | DLSVRGS | QQYDRLPLS [En_HC] gave 79 nM (6 of 6 replicates). For HITYGMQVAGRHHSSIA | QAEERAK | QQYDRLPLS [En_Gen], the assay gave 4.0 nM (6 of 6 replicates). The variant QIYQAMHTLSQVKDNVA | DVNERGQ | QQYFRLPLS [En_Gen] showed 1.0 nM (6 of 6 replicates). The variant MISMMMRQETGVRNNIA | NSQTREQ | QQYHRLPIS [En_Gen] gave 7.5 nM (6 of 6 replicates).

The variant KSSQSVLGEDGNKNSVA | HASVREE | QQYHRLPLM [GP_Gibbs] gave 2.1 nM (6 of 6 replicates). For FLAYALDQDGLIKNNIA | QDNLLEN | QQYERLPLA [En_Gibbs], the assay gave 69 nM (2 of 6 replicates). The variant KWEEGWLYESRNKNSVA | EGSTRES | QQYHRLPLS [GP_Gibbs] showed 1.1 nM (6 of 6 replicates). The variant KLMQSWDYESRNKNSVA | NASKRMQ | QQYHRLPLS [GP_Gibbs] showed 2.4 nM (6 of 6 replicates). The variant NVGQSMDGASRNKNSVA | HQSTRED | QHYHRLPLS [En_HC] showed 42 nM (6 of 6 replicates). With KFSQLWMYEQRNKNSVA | NASQRED | QQYHRLPLS [GP_Gibbs] the result was 710 pM (6 of 6 replicates).

With HSNGNLVMGERNKNHVA | STDVRAS | QQYSRLPLT [En_Gibbs] the result was 4.6 nM (6 of 6 replicates). With ALTAHRQVAIETKNSIA | NAVMRYQ | QQYAQLPLM [En_Gibbs] the result was 2.9 nM (6 of 6 replicates). The variant MISQLYNMGSFAINSVA | QATERNE | QQYDRLPLI [En_Gen] gave 300 nM (1 of 6 replicates). The variant KLMCSMEYESRNKNSVA | NASTREE | QQYHRLPLV [GP_Gibbs] gave 620 pM (6 of 6 replicates). For QFEDIKMKGNDFGDSVA | ETNARYA | QQYFRLPLA [En_Gibbs], the assay gave 5.4 nM (6 of 6 replicates). With KLVGDMQSDKNPSENIA | EMSSVEQ | QQYARLPLD [En_Gibbs] the result was 20 µM (1 of 6 replicates).

The variant SMQSDQIEGNQQQNSIA | GESITDM | QHYERLPLT [En_Gibbs] showed 67 nM (1 of 6 replicates). The variant SLSESEREELSVEQNIA | DGTEHMR | QQYFQLPLL [En_Gibbs] gave 21 nM (6 of 6 replicates). With IVSQVMSWGIHAKNSIA | EAQTRLN | QQYDRLPLY [En_Gen] the result was 68 nM (2 of 6 replicates). The variant MISDLMQYGSRNKNPIA | NASTREY | QQYHRLPLE [En_HC] gave 6.2 nM (6 of 6 replicates). The variant NISHFMDVTAKNINNVA | EMTTREM | QQYHHLPLS [En_Gen] gave 1.3 nM (6 of 6 replicates). The variant MMSQVTLQGTRHRNNVA | QTSTREP | QQYDRLPLI [En_Gen] gave 10 nM (6 of 6 replicates).

With MISDLTMYGSRNQNSVA | DLSTRGS | QQYHRLPLS [En_HC] the result was 1.2 nM (6 of 6 replicates). For MISQIYNMGTFAINSVA | QASIRNA | QQYDRLPLI [En_Gen], the assay gave 25 nM (6 of 6 replicates). With KLSMSVLMEQRNHNSVA | SANTREE | QQYHRLPLS [GP_Gibbs] the result was 1.0 nM (6 of 6 replicates). With MISQMFDGLSTSKNPVA | QVSTREE | QQYHRLPLS [En_HC] the result was 37 nM (6 of 6 replicates). The variant MISQLMNLGQFAINSVA | QASIRNA | QQYDRLPLV [En_Gen] gave 100 nM (6 of 6 replicates). The variant KLNMLTGLETKMRNSVA | QMTTREE | QQYNHLPLS [En_Gen] showed 1.4 nM (6 of 6 replicates).

The variant HVHMEMAIWKEILNNIA | DAQMRAA | QQYFRLPLG [En_Gibbs] showed no signal (0 of 6 replicates). The variant TLGQSALMESRNKNNVA | QMSTREK | QQYDRLPLS [En_HC] showed 1.3 nM (6 of 6 replicates). The variant HMSESEHGDNVGVGNMA | NAHETVA | QQYHHLPLS [En_Gibbs] showed 1.1 nM (6 of 6 replicates). The variant KLQFSCLYESRNKNSVA | SASYRLS | QQYHRLPLS [GP_Gibbs] showed 11 nM (6 of 6 replicates). The variant HVSESVLQQSKMKNSVA | ENSTRES | QQYDRLPLS [En_HC] showed 20 nM (6 of 6 replicates). For KISNTSEMELKNRNSVA | ELVTRLN | QQYNRLPLS [En_Gen], the assay gave 11 nM (6 of 6 replicates).

The variant KVYQSNGYESRNDNNVA | NASLRES | QQYHRLPLS [GP_Gibbs] showed 1.2 nM (6 of 6 replicates). With KLSGSMLYEQRMKNSVA | QASQRLS | QDYHRLPLS [GP_Gibbs] the result was 4.3 nM (6 of 6 replicates). For KLQQSMLYESRNVNSVA | DASKRES | QAYHRLPLS [GP_Gibbs], the assay gave 830 pM (6 of 6 replicates). The variant HIDDFEPSEGEKWNAIA | GDATRLQ | QAYARLPLS [En_Gibbs] gave 200 nM (6 of 6 replicates). The variant NVGGEDPGQWYMWDSIA | GSSLRAE | QQYWRLPLM [En_Gibbs] gave 13 nM (6 of 6 replicates). With RLNVFQNVSTQQNNNIA | QAEQKVH | QQYMRLPLY [En_Gibbs] the result was 1.1 nM (6 of 6 replicates).

For MIEQGENRDQEHYNSIA | EGHERPR | QQYYRLPLV [En_Gibbs], the assay gave 7.0 nM (6 of 6 replicates). The variant NFSQMVLTGMTLKNSVA | HASTREE | QQYHRLPLI [En_HC] showed 14 nM (6 of 6 replicates). With KIEISNSVSLRGTRAIA | QASTRAH | QQYHRLPLT [En_Gibbs] the result was 26 nM (6 of 6 replicates). With KIYQVGLGSQKVMRNIA | ETSTRCT | QSYQRLPLS [En_Gibbs] the result was 17 nM (6 of 6 replicates). For RFSQTEQMGIRDYNSVA | NGSTYAT | QHYSRLPIS [En_Gibbs], the assay gave 14 nM (6 of 6 replicates). With KLSLFYRLETRNKNSVA | DNSTRES | QDYDRLPLS [En_HC] the result was 100 nM (3 of 6 replicates).

For KSSGSVLYEDKNVNSVA | NASQRLM | QQYHRLPLS [GP_Gibbs], the assay gave 3.6 nM (6 of 6 replicates).

The opening 8 entries, copied out:

CDR-L1,CDR-L2,CDR-L3,group,apparent Kd,replicates with signal
KLRMSTGYESRNKDSIA,DNSTRGR,QQYHRLPLS,En_HC,22 nM,6 of 6
KLSWLHWYWSRNKNSVA,EASTREQ,QQYHRLPLS,GP_Gibbs,22 nM,5 of 6
TISQSAEQESHNKNSVA,DLSVRGS,QQYDRLPLS,En_HC,79 nM,6 of 6
HITYGMQVAGRHHSSIA,QAEERAK,QQYDRLPLS,En_Gen,4.0 nM,6 of 6
QIYQAMHTLSQVKDNVA,DVNERGQ,QQYFRLPLS,En_Gen,1.0 nM,6 of 6
MISMMMRQETGVRNNIA,NSQTREQ,QQYHRLPIS,En_Gen,7.5 nM,6 of 6
KSSQSVLGEDGNKNSVA,HASVREE,QQYHRLPLM,GP_Gibbs,2.1 nM,6 of 6
FLAYALDQDGLIKNNIA,QDNLLEN,QQYERLPLA,En_Gibbs,69 nM,2 of 6

Values reported by Li et al. 2023, doi:10.1038/s41467-023-39022-2 (FLAb copy).